Source: ChEMBL document CHEMBL1139297, “Synthesis and stereochemical effects of pyrrolidinyl-acetylenic thieno[3,2-d]pyrimidines as EGFR and ErbB-2 inhibitors” (Bioorg Med Chem Lett, 2009)

By UniProt entry, the sequences of proteins in these tests, tags left out.
UniProt P04626, whole entry: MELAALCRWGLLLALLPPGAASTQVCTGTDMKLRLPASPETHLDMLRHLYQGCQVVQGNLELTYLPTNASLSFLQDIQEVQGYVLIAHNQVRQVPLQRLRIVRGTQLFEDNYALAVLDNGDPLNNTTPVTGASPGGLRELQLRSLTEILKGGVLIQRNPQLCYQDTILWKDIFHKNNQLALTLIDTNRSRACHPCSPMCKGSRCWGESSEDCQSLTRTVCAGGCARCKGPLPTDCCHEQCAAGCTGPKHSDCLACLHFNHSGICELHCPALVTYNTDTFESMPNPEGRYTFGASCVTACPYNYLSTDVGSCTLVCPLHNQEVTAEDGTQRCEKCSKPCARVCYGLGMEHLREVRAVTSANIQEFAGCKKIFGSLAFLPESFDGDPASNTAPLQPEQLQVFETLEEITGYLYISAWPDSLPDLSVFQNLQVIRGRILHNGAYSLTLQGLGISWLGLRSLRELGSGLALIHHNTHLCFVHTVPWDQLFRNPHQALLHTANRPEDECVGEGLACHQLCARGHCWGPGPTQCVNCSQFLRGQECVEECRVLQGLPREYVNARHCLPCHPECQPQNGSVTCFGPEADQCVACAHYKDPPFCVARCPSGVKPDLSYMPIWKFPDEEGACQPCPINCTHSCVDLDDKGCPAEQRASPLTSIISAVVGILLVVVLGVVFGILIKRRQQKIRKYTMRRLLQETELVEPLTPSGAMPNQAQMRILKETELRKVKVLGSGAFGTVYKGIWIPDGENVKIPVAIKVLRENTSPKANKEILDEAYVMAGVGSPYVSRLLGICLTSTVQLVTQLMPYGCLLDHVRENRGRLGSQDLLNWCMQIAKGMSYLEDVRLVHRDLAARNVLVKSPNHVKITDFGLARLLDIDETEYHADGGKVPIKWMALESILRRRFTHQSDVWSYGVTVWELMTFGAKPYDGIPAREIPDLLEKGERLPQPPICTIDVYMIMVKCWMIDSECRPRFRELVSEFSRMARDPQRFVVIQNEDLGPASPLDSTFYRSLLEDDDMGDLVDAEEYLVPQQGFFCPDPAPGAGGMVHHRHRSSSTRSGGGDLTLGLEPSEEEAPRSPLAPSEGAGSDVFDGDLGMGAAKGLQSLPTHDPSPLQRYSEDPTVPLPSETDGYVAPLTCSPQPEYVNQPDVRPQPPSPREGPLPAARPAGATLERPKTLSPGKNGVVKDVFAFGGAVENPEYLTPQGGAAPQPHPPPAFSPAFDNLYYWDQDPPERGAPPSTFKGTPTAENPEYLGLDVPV
UniProt P00533, whole entry: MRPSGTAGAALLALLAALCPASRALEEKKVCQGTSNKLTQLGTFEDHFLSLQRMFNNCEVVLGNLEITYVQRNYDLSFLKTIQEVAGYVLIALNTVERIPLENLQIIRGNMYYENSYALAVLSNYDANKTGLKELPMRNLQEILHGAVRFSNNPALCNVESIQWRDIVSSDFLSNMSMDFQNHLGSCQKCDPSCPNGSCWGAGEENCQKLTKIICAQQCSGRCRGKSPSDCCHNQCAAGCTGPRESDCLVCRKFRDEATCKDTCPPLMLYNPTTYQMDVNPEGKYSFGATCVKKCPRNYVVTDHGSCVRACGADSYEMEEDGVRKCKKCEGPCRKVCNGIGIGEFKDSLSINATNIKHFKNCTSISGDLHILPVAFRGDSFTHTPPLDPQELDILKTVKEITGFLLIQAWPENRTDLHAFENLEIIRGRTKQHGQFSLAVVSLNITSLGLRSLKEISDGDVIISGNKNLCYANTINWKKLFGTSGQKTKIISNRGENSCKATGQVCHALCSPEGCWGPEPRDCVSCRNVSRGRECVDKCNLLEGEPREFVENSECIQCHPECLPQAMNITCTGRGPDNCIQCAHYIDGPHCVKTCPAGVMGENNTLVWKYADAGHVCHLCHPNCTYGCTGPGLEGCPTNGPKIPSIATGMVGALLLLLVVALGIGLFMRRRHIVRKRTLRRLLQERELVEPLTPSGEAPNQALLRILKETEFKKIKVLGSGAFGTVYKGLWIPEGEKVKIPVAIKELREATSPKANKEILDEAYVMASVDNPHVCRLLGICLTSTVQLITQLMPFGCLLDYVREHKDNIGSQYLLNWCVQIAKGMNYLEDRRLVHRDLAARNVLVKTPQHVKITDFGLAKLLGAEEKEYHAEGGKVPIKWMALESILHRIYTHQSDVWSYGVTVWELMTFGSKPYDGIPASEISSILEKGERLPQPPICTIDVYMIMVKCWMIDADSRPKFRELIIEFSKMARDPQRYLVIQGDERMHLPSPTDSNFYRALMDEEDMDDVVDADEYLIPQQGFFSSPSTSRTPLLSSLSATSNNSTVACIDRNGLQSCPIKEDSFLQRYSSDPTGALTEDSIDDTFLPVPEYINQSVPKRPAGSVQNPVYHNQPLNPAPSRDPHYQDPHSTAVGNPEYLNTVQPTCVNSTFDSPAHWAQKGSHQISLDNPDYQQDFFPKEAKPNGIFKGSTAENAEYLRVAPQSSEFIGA

How the values were obtained:
[1] = biological target: T1, Receptor tyrosine-protein kinase erbB-2 (Homo sapiens, UniProt P04626); assay: Inhibition of ERBb2 by DELFIA assay
[2] = biological target: T1, Receptor tyrosine-protein kinase erbB-2
[3] = biological target: Epidermal growth factor receptor (Homo sapiens, UniProt P00533)
HN5 = assay: cells; conditions: Homo sapiens, HN5, 72 h

Structure (SMILES)	EC50 [1] [nM]	IC50 [3] [nM]	also measured
CCNC(=O)O[C@@H]1CN[C@@H](C#Cc2cc3ncnc(Nc4ccc(OCc5cccc(F)c5)c(Cl)c4)c3s2)C1	50		
CCNC(=O)O[C@@H]1CN[C@H](C#Cc2cc3ncnc(Nc4ccc(OCc5cccc(F)c5)c(Cl)c4)c3s2)C1	130		IC50 [2]: 63 nM
O=C(O[C@@H]1CN[C@H](C#Cc2cc3ncnc(Nc4ccc(OCc5cccc(F)c5)c(Cl)c4)c3s2)C1)N1CCOCC1		79	
CCNC(=O)O[C@H]1CN[C@@H](C#Cc2cc3ncnc(Nc4ccc(OCc5cccc(F)c5)c(Cl)c4)c3s2)C1	10		IC50 [2]: 20 nM
O=C(O[C@H]1CN[C@H](C#Cc2cc3ncnc(Nc4ccc(OCc5cccc(F)c5)c(Cl)c4)c3s2)C1)N1CCOCC1 [GW869810X]			EC50 (HN5): 160 nM
O=C(O[C@@H]1CN[C@@H](C#Cc2cc3ncnc(Nc4ccc(OCc5cccc(F)c5)c(Cl)c4)c3s2)C1)N1CCOCC1		40	
O=C(O[C@H]1CN[C@@H](C#Cc2cc3ncnc(Nc4ccc(OCc5cccc(F)c5)c(Cl)c4)c3s2)C1)N1CCOCC1		50	
CCNC(=O)O[C@H]1CN[C@H](C#Cc2cc3ncnc(Nc4ccc(OCc5cccc(F)c5)c(Cl)c4)c3s2)C1 [GSK-192082A]			IC50 [1]: 10 nM
